Assay results as given in patent EP4834883A1, “HNRNPA2B1 AGONIST COMPOUND AND USE THEREOF IN TUMOR PREVENTION AND TREATMENT” (dated 2026).

Key:
[1] = system: LLC (Lewis lung carcinoma) tumor cells; assay: Cytotoxic effect on tumor cells by microscopy and flow cytometry; conditions: 20 and 40 µM, 36 hours, flow cytometry (Figure 5)
Description: LLC (Lewis lung carcinoma) tumor cells (cell density: 1 × 10^5 cells per well) were stimulated with test compound E at concentrations of 20 and 40 µM. Cell morphology was observed under a microscope at 36 hours post-stimulation, and after cell digestion, the cytotoxic effect of compound E on tumor cells was detected by flow cytometry.

B16-F10 melanoma cells [2] = assay: Subcutaneous B16F10 melanoma model in mice, tumor volume; conditions: mice s.c. 5 × 10^5 B16-F10 cells; 15 mg/kg tail vein injection once every four days, four doses, from day 10
Description: (§1) Mice (6- to 8-week-old male C57BL/6J mice) were subcutaneously inoculated with 5 × 10^5 B16-F10 melanoma cells. Starting from day 10 post-inoculation, compound E (15 mg/kg mouse body weight) was administered via tail vein injection once every four days for a total of four doses. Tumor growth was continuously observed, with tumor volume calculated as (length × width^2)/2.

TBK1 and IRF3 = assay: Activation of TBK1 and IRF3 by SDS-PAGE electrophoresis and immunoblotting in A549 lung cancer cells; conditions: 20 µM, 30 minutes, immunoblotting (Figure 2)
Description: (§2) A549 lung cancer cells (cell density: 1 × 10^5 cells per well) were stimulated with test compound E (prepared as in Example I.5, dissolved in physiological saline) at a concentration of 20 µM for 30 minutes. The subcellular localization of hnRNPA2B1 was detected by immunofluorescence, and the activation of TBK1 and IRF3 was detected by SDS-PAGE electrophoresis and immunoblotting.

LLC tumor cells = assay: Subcutaneous LLC tumor model in mice, tumor volume and survival; conditions: mice s.c. 5 × 10^5 LLC cells, 15 mg/kg tail vein injection once every four days, four doses
Description: as §1, with “LLC tumor” for “B16-F10 melanoma”, “width^2)/2, and mouse survival was monitored.” for “width^2)/2.”

IFN-β = assay: Type I interferon induction in tumor cells, IFN-β protein levels in supernatant by ELISA; conditions: A549, HepG2, LLC, B16F10 cells; 20 and 40 µM; supernatants at 18 and 24 hours; ELISA (Figure 3)
Description: A549 (non-small cell lung cancer), HepG2 (hepatocellular carcinoma), LLC (Lewis lung carcinoma), and B16F10 (melanoma) tumor cells (cell density: 1 × 10^4 cells per well) were stimulated with test compound E at concentrations of 20 and 40 µM. Cell culture supernatants were collected at 18 and 24 hours post-stimulation, and IFN-β protein levels were detected by ELISA.

B16-F10 melanoma cells [3] = assay: Experimental lung metastasis of B16F10 tumors in mice, in vivo imaging and isolated lungs; conditions: mice i.v. 5 × 10^4 B16-F10 cells; 10 mg/kg tail vein injection once every three days, three doses, from day 6 (Figures 8 and 9)
Description: Mice (6- to 8-week-old male C57BL/6J mice) were injected via the tail vein with 5 × 10^4 B16-F10 melanoma cells. Starting from day 6 post-injection, compound E (10 mg/kg mouse body weight) was administered via tail vein injection once every three days for a total of three doses. On day 13 post-administration, lung tumor conditions were observed and quantitatively compared using a small animal in vivo imaging system. On day 15, the mice were euthanized, and the lungs were isolated to observe tumor conditions.

[4] = system: A549, HepG2, LLC, and B16F10 tumor cells; assay: Tumor cell viability/proliferation by CCK-8 assay; conditions: 20 µM, 24 and 48 hours, CCK-8 (Figure 4)
Description: A549 (non-small cell lung cancer), HepG2 (hepatocellular carcinoma), LLC (Lewis lung carcinoma), and B16F10 (melanoma) tumor cells (cell density: 1 × 10^4 cells per well) were stimulated with test compound E at a concentration of 20 µM. After 24 and 48 hours of stimulation, the cells were lysed, and the effect of compound E on tumor cell viability was detected by CCK-8 assay.

hnRNPA2B1 = assay: Nuclear export (subcellular localization) of hnRNPA2B1 by immunofluorescence in A549 lung cancer cells; conditions: 20 µM, 30 minutes, immunofluorescence (Figure 1)
Description: as §2

CN(C)CCN1C(=O)c2ccc(F)c3c(N4CCN(CCN5CCCC5)CC4)ccc(c23)C1=O
tumor cell apoptosis (cytotoxic effect) [1]: significantly induced tumor cell apoptosis
B16F10 tumor proliferation (tumor volume) (B16-F10 melanoma cells [2]): inhibited B16F10 tumor proliferation
activation of downstream TBK1 and IRF3 (TBK1 and IRF3): significantly activated
LLC tumor proliferation (tumor volume) (LLC tumor cells; from day 10 (Figure 6)): inhibited LLC tumor proliferation
survival of tumor-bearing mice (LLC tumor cells; from day 10 (Figure 7)): promoted the survival of tumor-bearing mice
type I interferon expression (IFN-β protein levels) (IFN-β): significantly activated
experimental lung metastasis of B16F10 tumors (B16-F10 melanoma cells [3]): inhibited experimental lung metastasis of B16F10 tumors
proliferation of multiple tumor cell types (tumor cell viability) [4]: significantly inhibited
nuclear export of hnRNPA2B1 (hnRNPA2B1): significantly activated
